Test [1] concerns the target Bromodomain-containing protein 4 (Homo sapiens, UniProt O60885). The test is described as follows: (§1) FP Competitive Binding Assay (No.350): Fluorescence Polarization (FP) competitive binding studies (see above) were carried out using the FAM labeled fluorescent probe Cpd. No. 350 to determine binding affinities of representative compounds to both BD1 and BD2 of BRD2, BRD3, and BRD4 proteins. Equilibrium dissociation constants (Id) values of Cpd. […] Final Cpd. […] Kd values of Cpd.

Protein sequences, listed by entry. Tags and fused reporters are not part of them.
UniProt P25440, whole entry: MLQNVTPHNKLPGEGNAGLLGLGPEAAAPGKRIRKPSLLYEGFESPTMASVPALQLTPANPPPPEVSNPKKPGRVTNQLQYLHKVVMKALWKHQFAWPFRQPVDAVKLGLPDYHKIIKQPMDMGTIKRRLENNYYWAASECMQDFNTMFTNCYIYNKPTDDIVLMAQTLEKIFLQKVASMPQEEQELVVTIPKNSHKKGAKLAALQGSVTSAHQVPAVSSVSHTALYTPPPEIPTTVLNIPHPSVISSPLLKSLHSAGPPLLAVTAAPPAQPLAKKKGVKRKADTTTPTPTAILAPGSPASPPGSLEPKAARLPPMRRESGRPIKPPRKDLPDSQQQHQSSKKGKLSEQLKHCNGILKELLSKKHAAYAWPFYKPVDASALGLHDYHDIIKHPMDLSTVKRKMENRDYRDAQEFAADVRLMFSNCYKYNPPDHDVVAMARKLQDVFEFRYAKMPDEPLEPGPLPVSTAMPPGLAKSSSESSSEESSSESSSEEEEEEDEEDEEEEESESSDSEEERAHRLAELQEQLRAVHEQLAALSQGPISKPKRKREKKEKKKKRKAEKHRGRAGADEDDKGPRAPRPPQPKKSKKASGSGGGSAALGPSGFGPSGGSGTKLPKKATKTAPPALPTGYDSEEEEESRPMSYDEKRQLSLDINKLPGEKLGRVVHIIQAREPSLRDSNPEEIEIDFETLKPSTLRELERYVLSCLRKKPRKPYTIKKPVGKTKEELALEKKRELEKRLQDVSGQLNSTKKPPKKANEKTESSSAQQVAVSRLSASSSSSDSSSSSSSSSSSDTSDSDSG
UniProt Q15059, whole entry: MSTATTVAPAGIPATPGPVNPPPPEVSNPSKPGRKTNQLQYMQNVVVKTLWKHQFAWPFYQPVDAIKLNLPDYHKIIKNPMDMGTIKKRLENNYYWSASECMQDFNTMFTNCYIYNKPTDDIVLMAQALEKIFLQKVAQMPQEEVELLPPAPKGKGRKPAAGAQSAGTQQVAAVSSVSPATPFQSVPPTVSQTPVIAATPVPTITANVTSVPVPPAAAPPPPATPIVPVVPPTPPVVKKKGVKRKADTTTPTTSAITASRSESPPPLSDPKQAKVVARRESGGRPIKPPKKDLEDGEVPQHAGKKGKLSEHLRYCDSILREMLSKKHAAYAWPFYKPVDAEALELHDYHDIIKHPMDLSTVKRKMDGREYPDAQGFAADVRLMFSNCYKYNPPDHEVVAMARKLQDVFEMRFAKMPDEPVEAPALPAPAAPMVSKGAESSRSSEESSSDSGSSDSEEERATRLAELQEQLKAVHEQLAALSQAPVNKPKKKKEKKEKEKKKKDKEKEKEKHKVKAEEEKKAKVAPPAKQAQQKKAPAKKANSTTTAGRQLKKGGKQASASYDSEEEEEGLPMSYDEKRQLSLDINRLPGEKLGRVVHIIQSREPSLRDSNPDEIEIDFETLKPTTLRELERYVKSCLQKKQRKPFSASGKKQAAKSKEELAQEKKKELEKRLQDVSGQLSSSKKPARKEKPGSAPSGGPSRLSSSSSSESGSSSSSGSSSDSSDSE

The target in test [2] is Bromodomain-containing protein 2 (Homo sapiens, UniProt P25440). The description is as §1.
Test [3] concerns the target Bromodomain-containing protein 3 (Homo sapiens, UniProt Q15059). The test is described as §1.

We go through one compound from ChEMBL document CHEMBL5725377, “BET bromodomain inhibitors and therapeutic methods using the same” (2017).

Consider `COc1cc2c(cc1-c1c(C)noc1C)[nH]c1nc(C)nc(-c3cc(C(=O)NC4CCN(C5COC5)CC4)cc(C(C)(C)C)c3)c12`, for which the results for the Ki in test [1], in test [2] and in test [3] were 10 nM, 3.2 nM and 2.3 nM, respectively.
